The values below are quoted from earlier work in patent US20240166646A1, “1H-PYRROLO[2,3-B]PYRIDINE DERIVATIVES AS BCL-2 INHIBITORS FOR THE TREATMENT OF NEOPLASTIC AND AUTOIMMUNE DISEASES” (Newave Pharmaceutical Inc., priority 2020, published 2024).

Sequences of proteins named here, by UniProt entry; tags and fusion partners are left off.
UniProt P10415, whole entry: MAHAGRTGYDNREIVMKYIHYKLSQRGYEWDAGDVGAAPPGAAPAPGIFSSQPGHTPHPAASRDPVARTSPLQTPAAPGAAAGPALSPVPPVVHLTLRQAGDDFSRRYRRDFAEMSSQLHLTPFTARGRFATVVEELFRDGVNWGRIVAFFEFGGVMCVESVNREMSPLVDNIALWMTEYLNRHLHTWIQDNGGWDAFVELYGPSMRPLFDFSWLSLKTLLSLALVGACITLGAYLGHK

pKi: −log10 of the molar value.

The series concerns the target Bcl-2 (Homo sapiens (Human), UniProt P10415). As to conditions: cited from earlier work.

For `CC1(C)CCC(c2ccc(Cl)cc2)=C(CN2CCN(c3ccc(C(=O)NS(=O)(=O)c4ccc(N[C@H](CCN5CCOCC5)CSc5ccccc5)c(S(=O)(=O)C(F)(F)F)c4)cc3)CC2)C1` [ABT-263], the pKi (usually the Ki on a negative log10 scale, so that one unit is a factor of ten) is not below 9.00.
